Some results for these compounds are left out of this collection, so the calls shown say nothing about other tests.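 How tested: cells in 96-well plates exposed to compound for 48 hours at five concentrations. Definition used: TGI = concentration required for complete inhibition of growth.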
Experiments:
Experiment in all cases: NCI-60 cell line screen, 48 h
HL-60(TB) leukemia = system: HL-60(TB) leukemia
MCF7 breast = system: MCF7 breast
LOX IMVI melanoma = system: LOX IMVI melanoma
SN12C renal = system: SN12C renal
HCT-116 colon = system: HCT-116 colon
OVCAR-4 ovarian = system: OVCAR-4 ovarian
SNB-75 CNS = system: SNB-75 CNS
HOP-62 NSCLC = system: HOP-62 NSCLC
PC-3 prostate = system: PC-3 prostate
NCI/ADR-RES ovarian = system: NCI/ADR-RES ovarian
U251 CNS = system: U251 CNS
EKVX NSCLC = system: EKVX NSCLC
SK-OV-3 ovarian = system: SK-OV-3 ovarian
SF-295 CNS = system: SF-295 CNS
TK-10 renal = system: TK-10 renal
SK-MEL-5 melanoma = system: SK-MEL-5 melanoma
MOLT-4 leukemia = system: MOLT-4 leukemia
NCI-H23 lung = system: NCI-H23 lung
RPMI-8226 leukemia = system: RPMI-8226 leukemia
MDA-MB-435 = system: MDA-MB-435
SNB-19 CNS = system: SNB-19 CNS
K-562 leukemia = system: K-562 leukemia
HT29 colon = system: HT29 colon
T-47D breast = system: T-47D breast
KM12 colon = system: KM12 colon
COLO 205 colon = system: COLO 205 colon
BT-549 breast = system: BT-549 breast
SK-MEL-28 melanoma = system: SK-MEL-28 melanoma
A549 NSCLC = system: A549 NSCLC
NCI-H226 lung = system: NCI-H226 lung
OVCAR-8 ovarian = system: OVCAR-8 ovarian
MALME-3M melanoma = system: MALME-3M melanoma
HOP-92 NSCLC = system: HOP-92 NSCLC
SF-539 CNS = system: SF-539 CNS
UACC-257 melanoma = system: UACC-257 melanoma
A498 renal = system: A498 renal
MDA-N = system: MDA-N
M14 melanoma = system: M14 melanoma
ACHN renal = system: ACHN renal
NCI-H460 lung = system: NCI-H460 lung
OVCAR-3 ovarian = system: OVCAR-3 ovarian
SW-620 colon = system: SW-620 colon
SR leukemia = system: SR leukemia
UACC-62 melanoma = system: UACC-62 melanoma
HCT-15 colon = system: HCT-15 colon
CAKI-1 renal = system: CAKI-1 renal
MDA-MB-231 breast = system: MDA-MB-231 breast
NCI-H322M lung = system: NCI-H322M lung
SK-MEL-2 melanoma = system: SK-MEL-2 melanoma
HS 578T breast = system: HS 578T breast
OVCAR-5 ovarian = system: OVCAR-5 ovarian
IGROV1 ovarian = system: IGROV1 ovarian
786-0 renal = system: 786-0 renal
NCI-H522 lung = system: NCI-H522 lung
CCRF-CEM leukemia = system: CCRF-CEM leukemia

Measured: TGI

CN1CCC(OC(=O)C(O)(c2ccccc2)C2CCCC2)C1 (stereo not given)
> 100 µM: all assays above

From PubChem BioAssay (NCI)
